Data taken from PMC3604701.

Biological target: CoREST^286–482 (linker region and SANT2 domain)
Assay: SPR

Kd: 1.4 nM
koff: 7.78e-05 s⁻¹
kon: 56300 M⁻¹ s⁻¹
Substance: LSD1 (residues 151–852), lysine-specific demethylase 1 (from UniProt O60341 151-852) (domain or fragment)
